# Yeast mating assay 2: variants of the scFv Ab-95

Binding partner: SARS-CoV-2 spike HR2 peptide, sequence PDVDLGDISGINAS.

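Library AAYL52 holds single substitutions and randomly drawn double and triple substitutions in the CDRs. Affinity was read by AlphaSeq, a pooled yeast mating assay with surface-displayed partners. After mating in shaken culture at 30 °C for 16 h, diploids were selected and their barcode pairs sequenced. Scores were corrected for input abundance and mapped to Kd with protein pairs of known affinity run in the same pool. Mating was done three times.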

The variants keep the heavy chain, the linker and the frameworks of Ab-95 (scFv order VH, a (GGGGS)3 linker, VL).
VH: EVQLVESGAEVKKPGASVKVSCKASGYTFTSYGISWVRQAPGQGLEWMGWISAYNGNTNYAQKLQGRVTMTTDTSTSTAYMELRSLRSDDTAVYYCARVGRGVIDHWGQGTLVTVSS
VL: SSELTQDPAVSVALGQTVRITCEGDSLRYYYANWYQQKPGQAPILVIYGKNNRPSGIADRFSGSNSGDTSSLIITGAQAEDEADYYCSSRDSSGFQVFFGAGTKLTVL

Changes read parent residue, position, new residue, counted from the first residue of the VL shown.
Every variant below is changed at P54 of the VL (sequential numbering).
Scale: log10 of Kd in nM, estimated from mating counts; low values are strong binders.
Replicates are averaged; those with no signal do not enter the mean.
"ND" means that the variant was in the library but no mating with the target was seen in that replicate; the authors take this as a sign of poor binding, and no number exists.
Nonspecific signal, from three strains lacking the peptide, appeared in 28% of pairings of library AAYL52, centred on 3.91 (5% of these signals below 2.90); values are not corrected for it.

For P54W S55P G94V, the assay gave 4.31, 4.42, ND (mean 4.36). Variant G24N P54R F95D showed 3.50, 4.50, ND (mean 4.00). Variant Y31L N51D P54F showed ND, ND, ND. With P54E S88I the result was ND, ND, 2.49. With N33A P54N the result was 3.42, ND, ND. Variant K50A P54V S92T gave 3.14, 3.41, 2.94 (mean 3.16). Variant N33R P54D S89Y showed 4.28, 4.42, 4.59 (mean 4.43). Variant E23A D25V P54F showed 4.13, 3.26, 3.16 (mean 3.52).

Variant P54Q gave 2.82, 1.79, 1.65 (mean 2.09). With P54Q S55L the result was 2.58, 3.00, 2.48 (mean 2.69). Variant R28V Y29L P54F showed 3.39, 5.68, ND (mean 4.54). Variant R28S P54S F95A gave 2.56, 2.81, 2.80 (mean 2.72). For P54N R90E D91M, the assay gave ND, ND, ND. Variant R53P P54W F98L showed ND, 3.96, 4.40 (mean 4.18). For R53I P54S F95P, the assay gave 3.58, 4.23, 3.73 (mean 3.84). For L27C P54Q S92P, the assay gave 4.50, 5.25, 2.92 (mean 4.22).

Variant Y30N P54T V97F gave 2.00, 1.82, 1.50 (mean 1.77). Variant G24A D25S P54K showed 5.41, 4.16, 3.97 (mean 4.52). Variant R28C R53H P54W gave 4.58, ND, ND. Variant P54Y S88H G94N showed 3.57, ND, ND. With N33K N52Q P54R the result was ND, ND, ND. With N33P P54H S93Y the result was ND, 4.42, ND. Variant G24A P54S V97T gave ND, ND, ND. For Y29K P54L D91I, the assay gave 4.09, 3.58, 3.37 (mean 3.68).

Variant E23K Y29W P54D gave 2.45, 2.31, 2.06 (mean 2.27). With N33M P54S S92R the result was 4.42, ND, ND. Variant P54M V97R showed 2.99, 2.22, 2.70 (mean 2.64). Variant E23I P54H S55C showed 3.43, 3.13, 3.63 (mean 3.40). With Y29G P54V R90E the result was ND, 2.69, 2.89 (mean 2.79). For E23S R28P P54G, the assay gave 2.36, 2.75, 2.26 (mean 2.46). For G24H P54V S92C, the assay gave ND, ND, ND. Variant N33K P54M S89K showed ND, ND, 4.72.

Variant P54V V97T F98M showed ND, 3.69, 4.16 (mean 3.93). Variant S26T P54D gave 3.91, ND, 2.78 (mean 3.34). For Y31E P54L S92M, the assay gave 2.05, 1.87, 1.60 (mean 1.84). With Y29F N52R P54K the result was ND, ND, ND. Variant P54H S89H Q96G showed ND, 5.38, ND. Variant A32D P54Y F95Y gave ND, ND, ND. For G49D P54M D91P, the assay gave 2.69, 2.18, 2.46 (mean 2.44). Variant Y29K P54K V97D gave 4.42, ND, 3.49 (mean 3.95).

Variant E23S A32L P54S showed ND, 3.68, 3.32 (mean 3.50).

A selection of 6 entries from above:

changes	replicates, log10 nM	log10 Kd (nM), mean
P54Q	2.82, 1.79, 1.65	2.09
P54E S88I	ND, ND, 2.49	2.49
P54Y S88H G94N	3.57, ND, ND	3.57
E23I P54H S55C	3.43, 3.13, 3.63	3.40
E23A D25V P54F	4.13, 3.26, 3.16	3.52
R28C R53H P54W	4.58, ND, ND	4.58

Data: MIT Lincoln Laboratory AlphaSeq set, Engelhart et al. 2022, doi:10.1038/s41597-022-01779-4, as distributed in FLAb.